Test system: WT F9 cells
Assay: Proliferation of F9 cells in monolayer culture (cell counting, [3H]thymidine incorporation, cell cycle FACS)
Assay type: cell-based, murine
Settings: Mus musculus, F9, 144 h, 6 d, read-out: inhibition of growth relative to untreated control cells (cell counting)
Protocol: Cells were plated in triplicate 3-cm culture wells (5×10^2 cells per well), and cell counting experiments were performed as previously described (Clifford, J., et al., EMBO J. 15:4142-4155 (1996)). [^3H]Thymidine incorporation assays were performed essentially as described (Clifford, J., et al., EMBO J. 15:4142-4155 (1996)), with the following modifications. Cells were cultured for 4 d in six replicate 3 -cm wells, in the presence or absence of 1 μM tRA, and three of the six wells were treated with 8 μCi/well [^3H]methylthymidine (20.0 Ci/mmol; Dupont-NEN, Boston, Mass.) for 2 h before harvesting. The cell cycle profile of WT and mutant cells was determined as previously described (Clifford, J., et al. EMBO J. 15:4142-4155 (1996)).

CC1=C(/C=C/C(C)=C/C=C/C(C)=C/C(=O)O)C(C)(C)CCC1 [tRA, all-trans retinoic acid]
inhibition at 1 µM: 79%
